Data as given in patent US7989450B2, “Functionalized diarylisoxazoles inhibitors of ciclooxygenase” (Universita' Degli Studi Di Bari, priority 2008, dated 2011).

By UniProt entry, the sequences of proteins in these tests, tags left out. Residues count along the entry.
UniProt P23219, 24-599: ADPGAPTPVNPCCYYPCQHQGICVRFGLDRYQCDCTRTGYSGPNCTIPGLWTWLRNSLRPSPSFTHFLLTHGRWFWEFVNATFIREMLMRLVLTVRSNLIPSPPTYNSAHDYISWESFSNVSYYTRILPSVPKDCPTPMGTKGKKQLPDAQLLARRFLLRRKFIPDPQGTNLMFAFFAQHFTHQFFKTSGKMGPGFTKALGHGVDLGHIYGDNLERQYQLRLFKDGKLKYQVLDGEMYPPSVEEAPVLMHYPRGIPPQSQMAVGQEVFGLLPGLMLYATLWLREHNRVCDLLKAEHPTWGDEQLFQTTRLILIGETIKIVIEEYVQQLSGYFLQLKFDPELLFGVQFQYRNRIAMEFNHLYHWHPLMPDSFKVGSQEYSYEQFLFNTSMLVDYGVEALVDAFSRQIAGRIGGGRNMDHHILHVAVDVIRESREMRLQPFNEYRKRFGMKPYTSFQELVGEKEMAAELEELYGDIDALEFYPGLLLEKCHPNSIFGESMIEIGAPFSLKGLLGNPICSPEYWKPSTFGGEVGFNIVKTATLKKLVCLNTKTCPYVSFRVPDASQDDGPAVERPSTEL

Biological target: platelet COX-1 (Homo sapiens, UniProt P23219)
Test: Biosynthesis of TXB2 in human whole blood left to coagulate, index of platelet COX-1 activity
Settings: read-out: COX-1 IC50; human whole blood method, coagulation 1 hour at 37° C., TXB2 by RIA

Question: How did the IC50 turn out when Cc1onc(-c2ccccc2)c1-c1ccc(S(N)(=O)=O)cc1 [Valdecoxib, reference compound] was run?
Answer: 27 µM
